{"source": "patent US9962369B2", "about": "“Methods and compositions for transdermal delivery” (SPRAYABLE HOLDINGS, INC., priority 2014, dated 2018)", "test_system": "human skin tissue", "assay": "Penetration rate of AI compound in AI-helper composition through human skin in vitro, modified Franz cells", "conditions": "25 °C; for Skin penetration rate of Al compound: Al compound 0.5% w/v"}
{"substance": "Vitamin D", "values": [{"measurement": "Skin penetration rate of Al compound", "setting": "2-(Diethylamino)ethyl 2-(4-isobutylphenyl)propionate hydrochloride 6% w/v, water", "value": "13.179 ± 2.215", "unit": "μg/cm^2/h"}, {"measurement": "Skin penetration rate of Al compound", "setting": "D-Phenylalanine isopropyl ester hydrochloride 6% w/v, water", "value": "15.478 ± 2.126", "unit": "μg/cm^2/h"}, {"measurement": "Skin penetration rate of Al compound", "setting": "Dialkylaminoalkyl 2-(4-isobutylphenyl)propionate: None", "value": "0.72 ± 0.063", "unit": "μg/cm^2/h"}, {"measurement": "Skin penetration rate of Al compound", "setting": "L-Phenylalanine isopropyl ester hydrochloride 6% w/v, water", "value": "15.327 ± 2.032", "unit": "μg/cm^2/h"}, {"measurement": "Skin penetration rate of Al compound", "setting": "Phenylalanine ester: None", "value": "0.072 ± 0.033", "unit": "μg/cm^2/h"}, {"measurement": "Skin penetration rate of AI compound", "setting": "no isoleucine ester (None), AI compound 0.5 % w/v in water", "value": "0.078 ± 0.037", "unit": "μg/cm^2/h"}, {"measurement": "Skin penetration rate of AI compound", "setting": "no leucine ester (None), AI compound 0.5 % w/v in water", "value": "0.082 ± 0.053", "unit": "μg/cm^2/h"}, {"measurement": "Skin penetration rate of AI compound", "setting": "no tryptophan ester (None), AI compound 0.5 % w/v in water", "value": "0.102 ± 0.113", "unit": "μg/cm^2/h"}, {"measurement": "Skin penetration rate of AI compound", "setting": "with D-isoleucine isopropyl ester hydrochloride 6 % w/v in water, AI compound 0.5 % w/v", "value": "13.315 ± 2.126", "unit": "μg/cm^2/h"}, {"measurement": "Skin penetration rate of AI compound", "setting": "with D-leucine isopropyl ester hydrochloride 6 % w/v in water, AI compound 0.5 % w/v", "value": "13.139 ± 2.026", "unit": "μg/cm^2/h"}, {"measurement": "Skin penetration rate of AI compound", "setting": "with D-tryptophan isopropyl ester hydrochloride 6 % w/v in water, AI compound 0.5 % w/v", "value": "15.138 ± 2.179", "unit": "μg/cm^2/h"}, {"measurement": "Skin penetration rate of AI compound", "setting": "with L-isoleucine isopropyl ester hydrochloride 6 % w/v in water, AI compound 0.5 % w/v", "value": "13.425 ± 2.132", "unit": "μg/cm^2/h"}, {"measurement": "Skin penetration rate of AI compound", "setting": "with L-leucine isopropyl ester hydrochloride 6 % w/v in water, AI compound 0.5 % w/v", "value": "13.155 ± 2.112", "unit": "μg/cm^2/h"}, {"measurement": "Skin penetration rate of AI compound", "setting": "with L-tryptophan isopropyl ester hydrochloride 6 % w/v in water, AI compound 0.5 % w/v", "value": "16.345 ± 2.912", "unit": "μg/cm^2/h"}]}
